SMILES strings stand for the structures. Values joined by “and” are separate entries in the source; they are usually repeats but may differ in a detail not shown here. Identical values can stand only once. The list shows a part of the results, in another mix than the full data. Active and inactive are the calls of the source.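 The calls were made as follows: active = inhibition of cGAS enzyme activity at or above 60%; inactive = the rest.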

Amino acid sequences for entries named in this document (tags omitted).
UniProt Q8C6L5, whole entry: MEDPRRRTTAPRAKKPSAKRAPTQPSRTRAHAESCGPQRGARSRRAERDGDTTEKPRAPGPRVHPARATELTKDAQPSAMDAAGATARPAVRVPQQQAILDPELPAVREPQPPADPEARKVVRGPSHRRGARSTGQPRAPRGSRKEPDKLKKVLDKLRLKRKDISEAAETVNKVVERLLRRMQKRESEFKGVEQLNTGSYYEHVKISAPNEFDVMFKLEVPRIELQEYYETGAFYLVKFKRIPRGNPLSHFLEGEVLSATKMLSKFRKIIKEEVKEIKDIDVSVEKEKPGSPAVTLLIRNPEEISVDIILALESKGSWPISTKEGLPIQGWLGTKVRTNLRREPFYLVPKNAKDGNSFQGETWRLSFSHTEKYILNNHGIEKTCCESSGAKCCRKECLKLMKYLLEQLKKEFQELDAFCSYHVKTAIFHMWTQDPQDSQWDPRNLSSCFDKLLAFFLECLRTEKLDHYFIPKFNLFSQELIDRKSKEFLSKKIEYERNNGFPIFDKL

For this experiment, the target named is Cyclic GMP-AMP synthase (Mus musculus) (UniProt Q8C6L5). Description: inhibitors of Mus musculus cyclic GMP-AMP synthase, initial high-throughput assay, cell-free, RapidFire MS (AID 1259397).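 Also: enzyme stimulated by 45 bp dsDNA with ATP and GTP substrates; cGAMP share of summed cGAMP plus half ATP and half GTP signals.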 The following applies: recombinant mouse cGAS, cGAMP by RapidFire MS; at 12.5 µM; hits give high values.
As for `Cc1ccc(N(C(=O)c2ccco2)C2CCNCC2)cc1F`, the inhibition is inactive: 0.341%.
Next, `COc1ccc(N(C(=O)CC(C)C)C2CCNCC2)cc1`: inactive: -5.34%; `CCc1ccc(N(C(=O)c2cccc(C)c2)C2CCNCC2)cc1`: inactive: -5.95%.
Next, `O=C(NCC1(N2CCOCC2)CCCCC1)c1ccc(OCC(F)(F)F)nc1`: inactive: -3.7%; `O=c1[nH]c2ccccc2n1C1CCN(Cc2cccc(F)c2F)CC1`: inactive: 1.94%; `O=C(NCC1(N2CCCCC2)CCCCC1)c1ccc2c(c1)OCO2`: inactive: -6.99%.
Take `O=C(NCC1(N2CCOCC2)CCCCC1)c1ccc2c3c(cccc13)CC2`: the inhibition is inactive: -1.92%.
`O=C(NCC1(N2CCCCC2)CCCCC1)c1cc2c(s1)CCC2`: the inhibition was inactive: 3.22%.
Under `COCC(=O)N(c1cccc(C)c1)C1CCNCC1` stands inactive: -4.97%; under `COc1cc(NC2CCNCC2)cc(OC)c1`, inactive: 7.69%.
On to `CCOC(OCC)P(=S)(OCC)OCC`, for which the inhibition is inactive: -12.6%.
Under `Cc1cc(=O)[nH]c(C(C)N2CCC(Nc3ccccc3)CC2)n1` (centres undefined) stands inactive: -7.14% and inactive: -13.3%; under `Cc1nc([N+](=O)[O-])cn1CCC(=O)N[C@@H]1CCCC[C@H]1N1CCOCC1`, inactive: -13.4%.
Next, `O=C(NCC1(N2CCCCC2)CCCCC1)c1cccs1`: inactive: 2.69%.
Next, `c1ccc(NC2CCN(CCc3ccncc3)CC2)cc1`: inactive: 0.704%; `COc1cccc(N(C(=O)c2cccc(Cl)c2)C2CCNCC2)c1`: inactive: 0.211%; `CC(C)(C)OC(=O)N1CCC(Nc2ccccc2)(C(=O)N2CCC2)CC1`: inactive: -0.863%.
With `O=C(NCC1(N2CCOCC2)CCCCC1)c1ccc(Br)o1`, the inhibition is inactive: -9.6%.
As to `Cc1ccc(C(C)CCN(CCCl)CCCl)cc1` (centres undefined), the inhibition is inactive: -3.66%.

The record behind these values is PubChem BioAssay AID1259397 (Fisher Drug Discovery Resource Center, 2018).
